In this assay the test system is naive CD4 T cells. The assay can be described thus: T cell proliferation by CFSE dilution, plate-bound CD3 and CD28 mAbs. The format is cell-based, mouse. Particulars: IL-2 at 250 U/ml; PMA. From the text: FIG. 6: Pharmacological inhibition of P2 receptors impairs T cell proliferation as well as IL-2 secretion and implements anergy. • a) FACS profiles showing dilution of CFSE fluorescence in sorted naïve CD4^+ cells stimulated with plate-bound CD3 and CD28 (see methods section) in the absence (upper panels) or presence (lower panels) of oATP (see Example 4). […] The number of cells with detectable marker (proliferating cells) in timed acquisitions is indicated. • b) A representative experiment showing the IL-2 concentrations measured by ELISA in culture supernatants of naïve CD4^+ cells stimulated with plate-bound CD3 and CD28 antibodies for 48 h, and in the presence of oATP or PPADS. Gray bars represent IL-2 concentrations obtained when PMA was added to the sample. • c) Quantification of Egr2 and Egr3 transcripts by real time RT-PCR at 2 and 16 h after stimulation of sorted naïve CD4^+ cells with plate-bound CD3 and CD28 antibodies either in the absence or presence of oATP (see Example 4). *, P<0.05 • d) Cytosolic Ca^2+ profiles following CD3 stimulation of OVA-specific T cell clones pre-incubated for 16 h with ionomycin, CD3 and CD28 antibodies alone or in combination with oATP or oATP and PMA (see Example 4).
Therefore, we inferred that T cell stimulation in the presence of oATP might inhibit IL-2 expression. […]

Turning to “IL-2: interleukin-2 cytokine added at 250 U/ml”, the “oATP inhibition of T cell proliferation on addition of second agent” value is on record as “partially rescued”.

Source of the values: patent US20110076258A1, “METHODS OF MODULATING T CELL- DEPENDENT IMMUNE RESPONSES” (Converge Biotech Inc., priority 2008, published 2011).
